In PubChem BioAssay (Tox21) one finds cytotoxicity data, which are given here for 31 compounds.

Values joined by “and” are separate entries in the source; they are usually repeats but may differ in a detail not shown here. Identical values can stand only once. This is a selection; strong and weak results do not stand in their true shares. Active and inactive are the calls of the source. Calls follow the shape of the dose curve; as a rule, active = well fitted activation curve with a large enough effect in the repeat runs; inconclusive = weak or mixed curves; inactive = flat fitted curve, though single readings scatter.
% is scaled to controls: 0 for no effect and ±100 for the full control effect.

The first assay in a line: A CellTox Green Cytotoxicity Assay to monitor cytotoxicity in HEK293 cells - 0 hour (AID 1224869). Also: nearly all actives have a fitted effect of over 50% in size. To be noted: CellTox Green fluorescence, at 35.3 µM (top of the series). The text has this: National Center for Advancing Translational Sciences [NCATS]
NIH Chemical Genomics Center [NCGC]
U.S. Environmental Protection Agency [EPA]
National Institutes of Environmental Health Sciences [NIEHS]
National Toxicology Program [NTP]
Cell-based models are critical for drug discovery. Determining the natural cytotoxic effects resulting from test compounds is an essential research activity. A CellTox Green Cytotoxicity Assay to monitor cytotoxicity in real time of continues cell culture during 40 hours of the compound treatment was used to screen Tox21 10K library compounds in Hek293 cells. CellTox Green Cytotoxicity Assay is a nonlytic, homogeneous, biofluorescent method to measure cytotoxicity in cell culture after experimental manipulation. The assay system uses a proprietary asymmetric cyanine dye that is excluded from viable cells but preferentially stains the dead cell's DNA. […] Viable cells produce no appreciable increases in fluorescence. Therefore, the fluorescence signal produced by the binding interaction with dead cell DNA is proportional to cytotoxicity.
The mixture of Hek293 cell suspension and reagents were dispensed at 600cells/6 ul/well in 1536-well tissue culture treated black solid bottom plates using a Multidrop dispenser. After the assay plates were incubated at a 37 C/5% CO2 incubator for 5 hours, 23 nL of compounds dissolved in DMSO, positive and negative controls was transferred to the assay plate by a pintool work station. The plates were incubated at 37 C for 40 hours. The fluorescence intensity were measured at 0h, 8h, 16h, 24h, 32h and 40h time points using ViewLux plate reader during compound treatment.
As to `NC(=O)Nc1ccc([As](=O)(O)O)cc1`, the cytotoxicity was inactive: -1.3%.

Still in this assay, the particulars now being: CellTox Green fluorescence, at 76.8 µM (top of the series).
In the case of `NC(=O)Nc1ccc([As](=O)(O)O)cc1`, the cytotoxicity is inactive: 1.78%.

Still in this assay, the particulars now being: CellTox Green fluorescence; at 76.8 µM (top of the series) unless noted.
For `CCCCCCCCCCCCCC[P+](CCCCCC)(CCCCCC)CCCCCC`, the cytotoxicity was inactive: 15.4%.
As for `CCOP(=S)(CC)Sc1ccccc1` (configuration not stated), the cytotoxicity was inactive: 0.213%.
On the same count and under the same terms, to `CN(C(=O)Cc1ccc(Cl)c(Cl)c1)[C@H]1CC[C@@]2(CCCO2)C[C@@H]1N1CCCC1` belongs inactive: -7.54% [at 35.3 µM]; to `N#CSc1ccc([N+](=O)[O-])cc1[N+](=O)[O-]`, inactive: 0.604%; to `Cc1cc([N+](=O)[O-])c(O)c([N+](=O)[O-])c1`, inactive: -7.26%.
The same measure, in the same setting: to `O=C1C2CC=CCC2C(=O)N1SC(Cl)(Cl)C(Cl)Cl` (configuration not stated) belongs inactive: 3.88% and inactive: -0.352%; to `CCCCO[P+](=O)OCCCC`, inactive: -0.702% and inactive: -7.77%; to `O=C(Cl)OCCOC(=O)Cl`, inactive: -0.409%.
Still for that read-out and setting: to `CCC(C)(OOC(C)(C)C)OOC(C)(C)C` belongs inactive: 1.72% [at 15.8 µM]; to `COP(=S)(Cl)OC`, inactive: -2.4%.
For the compound `O=P(Cl)(Cl)c1ccccc1`, the cytotoxicity was inactive: -3.16%.
With `O=[As]c1ccccc1` (configuration not stated), the cytotoxicity was inactive: -5.69%.
The same measure, in the same setting: in the case of `COC(=O)Cl` it was inactive: -1.65%; in that of `O=[N+]([O-])c1ccc(S(=O)(=O)O)c([N+](=O)[O-])c1`, inactive: 1.18%.
`CCCCOP(OCCCC)OCCCC`: the cytotoxicity is inactive: -2.43%.
Same read-out and setting: to `O=[N+]([O-])c1ccc([N+](=O)[O-])cc1` belongs inactive: -9.57%.
In the case of `CC(C)CCCCCCCOP(OCCCCCCCC(C)C)Oc1ccccc1`, the cytotoxicity is inactive: 6.32%.
For `CN(N=O)C(=N)N[N+](=O)[O-]`, the cytotoxicity was inactive: 3.15%.
As to `CN(C(=O)Cc1cccc2occc12)[C@H]1CC[C@@]2(CCCO2)C[C@@H]1N1CCCC1`, the cytotoxicity is inactive: -2.17%.
Turning to `O=[p+]1oc2ccccc2c2ccccc21` (configuration not stated), the cytotoxicity was inactive: 6.92%.
Still for that read-out and setting: in the case of `CN(C(=O)Cc1ccccc1)[C@H]1CC[C@@]2(CCCO2)C[C@@H]1N1CCCC1` it was inactive: 0.572% [at 35.3 µM]; in that of `CCNC(C)Cc1ccc2c(c1)OCO2` (configuration not stated), inactive: 0.172%.
Consider `CCOC(=O)Cl`, for which the cytotoxicity is inactive: -1.59%.
On the same count and under the same terms, to `CC(C)OP(=S)(OC(C)C)SCCNS(=O)(=O)c1ccccc1` belongs inactive: 0.0649%.
Still for that read-out and setting: to `CCCCC(CC)CO[P+](=O)OCC(CC)CCCC` (configuration not stated) belongs inactive: -2.28%; to `Cc1cc([N+](=O)[O-])cc([N+](=O)[O-])c1O`, inactive: 0.481% and inactive: -9.37%; to `O=C(Cl)Oc1ccccc1`, inactive: -3.37%.
On the same count and under the same terms, to `ClP(Cl)c1ccccc1` belongs inactive: 2.29%; to `O=P(Cl)(Oc1ccccc1)Oc1ccccc1`, inactive: 4.52%.
In the case of `O=[P+](Oc1ccccc1)Oc1ccccc1`, the cytotoxicity is inactive: 4.42%.
